We go through one substance from paper PMC6405850.

Amino acid sequences for entries named in this document (tags omitted). A change or cut given only in a name is not applied to a line headed by its entry.
UniProt P01009: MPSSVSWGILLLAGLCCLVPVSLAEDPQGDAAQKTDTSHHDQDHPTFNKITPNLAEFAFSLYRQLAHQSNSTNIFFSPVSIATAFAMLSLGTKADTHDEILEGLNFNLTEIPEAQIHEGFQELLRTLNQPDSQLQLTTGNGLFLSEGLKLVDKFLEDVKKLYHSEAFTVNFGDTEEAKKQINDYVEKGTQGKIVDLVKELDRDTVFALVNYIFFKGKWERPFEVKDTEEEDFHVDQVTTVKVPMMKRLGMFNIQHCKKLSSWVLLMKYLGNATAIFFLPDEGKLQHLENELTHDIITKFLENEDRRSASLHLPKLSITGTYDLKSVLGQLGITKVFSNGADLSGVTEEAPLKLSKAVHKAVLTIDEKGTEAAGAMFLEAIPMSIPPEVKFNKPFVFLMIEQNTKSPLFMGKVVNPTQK

This assay concerns the target bovine trypsin (bovine).

“conserpin-AATRCL (from UniProt P01009 1-418) (designed binder)” had a stoichiometry of inhibition (SI) of trypsin after denaturation in 6 M guanidine hydrochloride and refolding of the serpin (210 nM trypsin, 0-450 nM serpin) of 2; a stoichiometry of inhibition (SI): residual trypsin activity (105 nM trypsin, 0-200 nM serpin, 30 min at 37 °C) on Na-benzoyl-L-arginine 4-nitroanilide of 1.64.
